Values joined by “and” are separate entries in the source; they are usually repeats but may differ in a detail not shown here. Equal values may be shown once. The list shows a part of the results, in another mix than the full data. Records with an inconclusive call do not appear. Active and inactive are the calls of the source. Unless noted, calls follow the shape of the dose curve; as a rule, active = well fitted curve in the direction sought with a large enough effect in the repeat runs; inconclusive = weak or mixed curves; inactive = no such curve, though single readings can be large; an effect the other way counts as inactive or inconclusive.
Experiments:
[1] = molecular target: Nuclear receptor ROR-gamma (Homo sapiens) (UniProt P51449); experiment: qHTS assay to identify small molecule antagonists of the retinoid-related orphan receptor gamma (ROR-gamma) signaling pathway (AID 1159521;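 also: CHO cells with doxycycline inducible ROR-gamma driving an RORE luciferase reporter; top concentration of the series differs between compounds; % is scaled to controls: 0 for no effect and ±100 for the full control effect; nearly all actives have a fitted effect of over 50% in size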); conditions: Tet-on RORgamma CHO cells, RORE-luciferase, 16 h
[2] = qHTS assay to identify small molecule agonists of the AP-1 signaling pathway - cell viability counter screen (AID 1159525; calls by dose curve; also: nearly all actives have a fitted effect of over 55% in size); conditions: ME-180 AP-1-bla cells viability, ATP luminescence, 5 h; at 76.8 µM (top of the series) unless noted
Outline: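 ME-180 AP-1-bla, 2500 cells/well, Opti-MEM + 0.5% dialyzed FBS; overnight 37 °C; cpd 15-pt titration, 5 h 37 °C; CellTiter-Glo 30 min RT; luminescence read; normalised to TOAB and DMSO controls.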

The chains behind the UniProt entries cited, without tags or fusion partners. Where a name states a change or a piece, a line headed by the entry shows the natural chain unless it says otherwise.
UniProt P19793: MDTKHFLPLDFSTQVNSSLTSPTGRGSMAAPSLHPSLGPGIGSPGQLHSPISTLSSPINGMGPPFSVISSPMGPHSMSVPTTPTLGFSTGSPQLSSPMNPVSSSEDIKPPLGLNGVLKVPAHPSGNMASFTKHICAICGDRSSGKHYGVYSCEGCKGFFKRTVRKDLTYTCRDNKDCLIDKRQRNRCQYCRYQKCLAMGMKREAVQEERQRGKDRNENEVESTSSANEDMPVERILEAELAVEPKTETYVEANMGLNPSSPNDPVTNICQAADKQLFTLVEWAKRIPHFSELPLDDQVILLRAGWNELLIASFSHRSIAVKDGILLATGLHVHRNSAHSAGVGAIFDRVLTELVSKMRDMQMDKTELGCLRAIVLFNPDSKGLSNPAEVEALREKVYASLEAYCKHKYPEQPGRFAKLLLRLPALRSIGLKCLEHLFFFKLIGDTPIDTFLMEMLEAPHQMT
UniProt P08659, whole entry, looked up: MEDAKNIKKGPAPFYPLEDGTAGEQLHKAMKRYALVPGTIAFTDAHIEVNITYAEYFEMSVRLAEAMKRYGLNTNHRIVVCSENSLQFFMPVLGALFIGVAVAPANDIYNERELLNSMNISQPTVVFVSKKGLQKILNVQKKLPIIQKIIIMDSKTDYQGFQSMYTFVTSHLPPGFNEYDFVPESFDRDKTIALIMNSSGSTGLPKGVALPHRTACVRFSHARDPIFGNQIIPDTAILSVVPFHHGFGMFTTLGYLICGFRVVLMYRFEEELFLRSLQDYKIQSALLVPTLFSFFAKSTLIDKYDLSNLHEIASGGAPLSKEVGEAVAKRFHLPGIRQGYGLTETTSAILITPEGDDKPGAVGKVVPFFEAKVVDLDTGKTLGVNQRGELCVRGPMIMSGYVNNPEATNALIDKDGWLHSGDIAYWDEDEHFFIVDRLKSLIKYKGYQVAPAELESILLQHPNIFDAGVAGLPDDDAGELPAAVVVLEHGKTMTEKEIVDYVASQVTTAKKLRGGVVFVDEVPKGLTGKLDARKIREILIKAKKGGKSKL
UniProt Q14994: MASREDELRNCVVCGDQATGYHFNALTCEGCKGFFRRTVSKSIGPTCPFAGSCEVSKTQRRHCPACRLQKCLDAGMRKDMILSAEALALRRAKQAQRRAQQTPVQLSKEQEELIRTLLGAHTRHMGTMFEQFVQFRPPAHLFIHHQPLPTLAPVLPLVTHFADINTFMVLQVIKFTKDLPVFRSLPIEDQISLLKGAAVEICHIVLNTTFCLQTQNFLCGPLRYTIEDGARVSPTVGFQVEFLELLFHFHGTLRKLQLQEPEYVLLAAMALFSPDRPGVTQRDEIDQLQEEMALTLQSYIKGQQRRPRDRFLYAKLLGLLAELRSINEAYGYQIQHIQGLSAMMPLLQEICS
UniProt P16473, whole entry, looked up: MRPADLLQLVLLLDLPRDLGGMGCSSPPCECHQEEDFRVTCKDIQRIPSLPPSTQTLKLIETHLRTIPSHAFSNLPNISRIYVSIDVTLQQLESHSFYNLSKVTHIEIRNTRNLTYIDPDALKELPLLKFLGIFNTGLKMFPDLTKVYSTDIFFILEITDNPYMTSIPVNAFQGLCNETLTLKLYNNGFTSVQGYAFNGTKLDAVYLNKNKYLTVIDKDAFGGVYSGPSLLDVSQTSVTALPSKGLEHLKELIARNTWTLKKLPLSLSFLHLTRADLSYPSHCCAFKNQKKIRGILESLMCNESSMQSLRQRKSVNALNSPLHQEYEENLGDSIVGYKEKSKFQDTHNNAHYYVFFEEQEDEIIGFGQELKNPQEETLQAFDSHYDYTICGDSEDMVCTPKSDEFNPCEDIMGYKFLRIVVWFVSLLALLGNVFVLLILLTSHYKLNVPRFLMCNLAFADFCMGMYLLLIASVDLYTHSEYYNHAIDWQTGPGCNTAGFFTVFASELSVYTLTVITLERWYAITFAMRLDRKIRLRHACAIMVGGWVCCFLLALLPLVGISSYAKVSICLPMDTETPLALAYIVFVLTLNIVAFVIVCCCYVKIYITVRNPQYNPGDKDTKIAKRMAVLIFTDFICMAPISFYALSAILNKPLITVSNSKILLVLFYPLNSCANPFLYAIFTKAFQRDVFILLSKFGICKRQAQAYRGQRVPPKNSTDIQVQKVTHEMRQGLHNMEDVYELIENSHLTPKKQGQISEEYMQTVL

[3] = qHTS assay to identify small molecule agonists of the AP-1 signaling pathway (AID 1159526; calls by dose curve; also: % is scaled to controls: 0 for no effect and ±100 for the full control effect); conditions: ME-180 (cervical carcinoma) AP-1-bla reporter, beta-lactamase FRET ratio, 5 h; at 76.8 µM (top of the series) unless noted
[4] = molecular target: Retinoic acid receptor RXR-alpha (Homo sapiens) (UniProt P19793); experiment: qHTS assay to identify small molecule agonists of the RXR signaling pathway (AID 1159527; calls by dose curve; also: % is scaled to controls: 0 for no effect and ±100 for the full control effect; nearly all actives have a fitted effect of over 35% in size); conditions: HEK293T RXRa-UAS-bla, beta-lactamase ratio, 16 h
[5] = qHTS assay to identify small molecule antagonists of the retinoic acid receptor (RAR) signaling pathway (AID 1159552; also: % is scaled to controls: 0 for no effect and ±100 for the full control effect; nearly all actives have a fitted effect of over 50% in size); conditions: C3RL4 RARE luciferase reporter, retinol-stimulated, 6 h
Outline: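 Readout: luciferase luminescence, 30 min post-reagent at RT. Setup: C3RL4 RARE reporter cells, compounds plus retinol 1 uM final, 6 hr incubation at 37 C and 5% CO2.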

[6] = qHTS assay to identify small molecule antagonists of the estrogen related receptor (ERR) signaling pathway from Tox21 library - cell viability counter screen (AID 1224834); conditions: ERR reporter cells viability, CellTiter-Fluor, 17.5 h; series mostly up to 92.4 µM; also: % is scaled to controls: 0 for no effect and ±100 for the full control effect; nearly all actives have a fitted effect of over 30% in size
Outline: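 Fluorescence from CellTiter-Fluor gives the viability read-out, taken 30 min after reagent addition. Before that, ERR cells seeded 6 h earlier were incubated with compounds for 17.5 h at 37 C.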

[7] = molecular target: Luciferin 4-monooxygenase (Photinus pyralis) (UniProt P08659); experiment: qHTS assay to identify small molecule inhibitors of firefly luciferase (AID 1224835); also: nearly all actives have a fitted effect of over 25% in size; also: potency is read from the fitted curve at half-maximal effect; as to activity change, negative = inhibition: % is scaled to controls: 0 for no effect and ±100 for the full control effect; conditions: purified P. pyralis luciferase, luminescence inhibition; series mostly up to 115 µM
Outline: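 Quantitative HTS format; KM concentrations of both substrates. Purified P. pyralis FLuc activity quantified from luminescence images.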

[8] = qHTS assay to identify small molecule agonists of the constitutive androstane receptor (CAR) signaling pathway - cell viability counter screen (AID 1224836); conditions: HepG2-CYP2B6-hCAR viability, CellTiter-Fluor, 23 h, PK11195 added to every well; series mostly up to 92.4 µM; also: nearly all actives have a fitted effect of over 45% in size; also: potency is read from the fitted curve at half-maximal effect
Outline: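 Compound titrations (15 concentrations) went onto HepG2-CYP2B6-hCAR cells 4 h after seeding, alongside PK11195 at a final 0.75 uM; a 23 h, 37 C/5% CO2 incubation preceded CellTiter-Fluor viability measurement.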

[9] = qHTS assay to identify small molecule antagonists of the constitutive androstane receptor (CAR) signaling pathway - cell viability counter screen (AID 1224837); conditions: HepG2-CYP2B6-hCAR viability, CellTiter-Fluor, 23 h, co-treated with 50 nM CITCO; series mostly up to 92.4 µM; also: nearly all actives have a fitted effect of over 45% in size; also: potency is read from the fitted curve at half-maximal effect
Outline: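 HepG2-CYP2B6-hCAR cells, 2500/well, 4 hr pre-incubation; compound titration, 15 conc.; CITCO 50 nM final; 23 hr, 37 C/5% CO2; CellTiter-Fluor, fluorescence intensity.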

[10] = molecular target: Nuclear receptor subfamily 1 group I member 3 (Homo sapiens) (UniProt Q14994); experiment: qHTS assay to identify small molecule antagonists of the constitutive androstane receptor (CAR) signaling pathway (AID 1224838); conditions: HepG2-CYP2B6-hCAR luciferase, CITCO-stimulated, 24 h; series mostly up to 92.4 µM;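 also: HepG2 cells stably expressing hCAR with CYP2B6 luciferase reporter stimulated by CITCO; nearly all actives have a fitted effect of over 40% in size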; also: potency is read from the fitted curve at half-maximal effect
[11] = molecular target: Nuclear receptor subfamily 1 group I member 3 (Homo sapiens) (UniProt Q14994); experiment: qHTS assay to identify small molecule agonists of the constitutive androstane receptor (CAR) signaling pathway (AID 1224839); conditions: HepG2 hCAR CYP2B6-luciferase, agonist mode, 24 h; at 92.4 µM (top of the series) unless noted;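 also: HepG2 cells stably carrying human CAR and a CYP2B6 luciferase reporter; % is scaled to controls: 0 for no effect and ±100 for the full control effect; nearly all actives have a fitted effect of over 15% in size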
[12] = qHTS assay to identify small molecule antagonists of the estrogen related receptor signaling pathway with the pleiotropic PPARgamma coactivator (PGC) from Tox21 10K library - cell viability counter screen (AID 1224840; active = well fitted cell-killing curve with a large enough effect in the repeat runs, not every such curve was filed as active; also: % is scaled to controls: 0 for no effect and ±100 for the full control effect; nearly all actives have a fitted effect of over 40% in size); conditions: PGC/ERR reporter cells viability, CellTiter-Fluor, 17.5 h; at 92.4 µM (top of the series) unless noted
Outline: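 PGC/ERR cells, 2,000/well; 6 h pre-incubation 37 C/5% CO2; cpd in DMSO via pin tool; 17.5 h 37 C; CellTiter-Fluor, 30 min; fluorescence.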

[13] = qHTS assay to identify small molecule agonists of the estrogen related receptor signaling pathway with the pleiotropic PPARgamma coactivator (PGC) from Tox21 10K library (AID 1224842); conditions: PGC/ERR reporter cell line, luciferase ONE-Glo, 18 h; at 92.4 µM (top of the series) unless noted; also: % is scaled to controls: 0 for no effect and ±100 for the full control effect; nearly all actives have a fitted effect of over 15% in size
Outline: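 PGC/ERR reporter cells (NTP line) were seeded 2,000 per well, rested 6 h at 37 C/5% CO2, then pin-dosed with compounds in DMSO for 18 h at 37 C; luciferase read by One-Glo luminescence after 30 min at room temperature.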

[14] = molecular target: Thyrotropin receptor (Homo sapiens) (UniProt P16473); experiment: qHTS assay to identify small molecule agonists of the thyroid stimulating hormone receptor (TSHR) signaling pathway (AID 1224843; calls by dose curve; also: nearly all actives have a fitted effect of over 45% in size; also: potency is read from the fitted curve at half-maximal effect); conditions: TSHR-HEK293 cells, cAMP HTRF, agonist mode, 30 min; series mostly up to 92.4 µM
[15] = qHTS assay to identify small molecule antagonists of the estrogen related receptor signaling pathway with the pleiotropic PPARgamma coactivator (PGC) from Tox21 10K library (AID 1224841; call rule not given here; also: actives are mostly falling curves and most rising ones were filed inactive; nearly all actives have a fitted effect of over 50% in size; also: potency is read from the fitted curve at half-maximal effect); conditions: PGC/ERR reporter cell line, ONE-Glo luciferase, 18 h; series mostly up to 92.4 µM
[16] = qHTS assay to identify small molecule antagonists of the estrogen related receptor (ERR) signaling pathway - cell viability counter screen (AID 1224818); conditions: ERR reporter cell line viability counter screen; series mostly up to 46.1 µM;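 also: viability measured after 17.5 h of compound exposure; % is scaled to controls: 0 for no effect and ±100 for the full control effect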
Outline: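 Multiplexed counter screen to separate cytotoxic compounds from true ERR modulators. ERR cells received DMSO-dissolved compounds after a 6 h pre-incubation, were exposed 17.5 h at 37 C, then assayed with CellTiter-Fluor fluorescence.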

[17] = qHTS assay to identify small molecule antagonists of the estrogen related receptor signaling pathway with the pleiotropic PPARgamma coactivator (PGC) cell viability counter screen (AID 1224822; also: % is scaled to controls: 0 for no effect and ±100 for the full control effect); conditions: ERR/PGC reporter cell line viability counter screen; series mostly up to 46.1 µM
Outline: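 Cells: PGC/ERR, 2,000/well, 1536-well format. Pre-incubation 6 h, 37 C/5% CO2. Compound exposure 17.5 h, 37 C. Detection: CellTiter-Fluor, 30 min, fluorescence.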

O=C(Cl)Oc1ccccc1
inactive: activity change, negative = inhibition ([1]; at 92.4 µM (top of the series)) 10.5% | viability change, negative = cytotoxic [2] -2.78% | activation [3] -12.9% | activation ([4]; at 76.8 µM (top of the series)) -1.06% | activity, negative = inhibition ([5]; at 92.4 µM (top of the series)) -7.34% | Potency [6] | Potency [7] | Potency [8] | Potency [9] | Potency [10] | activation [11] 0.324% | viability change, negative = cytotoxic [12] -3.46% | activation [13] -7.54% | Potency [14]

O=[As]c1ccccc1 (stereo not drawn)
active: Potency [7] 31700 nM | Potency [8] 864 nM | Potency [9] 864 nM | Potency [10] 486 nM | Potency [15] 193 nM
inactive: activation [11] -18.1% | activation [13] -38.4%

N#CSc1ccc([N+](=O)[O-])cc1[N+](=O)[O-]
inactive: activation [11] -24.5% | activation [13] -36.3%

O=P(Cl)(Cl)c1ccccc1
inactive: activity change, negative = inhibition ([1]; at 92.4 µM (top of the series)) 17% | viability change, negative = cytotoxic [2] 14.2% | activation [3] -3.24% | activation ([4]; at 76.8 µM (top of the series)) 8.97% | Potency [6] | Potency [7] | Potency [8] | Potency [9] | Potency [10] | activation [11] -0.126% | viability change, negative = cytotoxic [12] 9.32% | Potency [15] | activation [13] 1.05% | Potency [14]

CN(C(=O)Cc1ccccc1)[C@H]1CC[C@@]2(CCCO2)C[C@@H]1N1CCCC1
inactive: activity change, negative = inhibition ([1]; at 42.5 µM (top of the series)) -14.1% | viability change, negative = cytotoxic [2] 0.264% [at 35.3 µM] | activation [3] -6.87% [at 35.3 µM] | activation ([4]; at 35.3 µM (top of the series)) 1.2% | activity, negative = inhibition ([5]; at 42.5 µM (top of the series)) 9.58% | Potency [7] | Potency [8] | Potency [10] | activation [11] -5.13% [at 42.5 µM] | viability change, negative = cytotoxic [12] -12.4% [at 42.5 µM] | Potency [14]

CN(C(=O)Cc1ccc(Cl)c(Cl)c1)[C@H]1CC[C@@]2(CCCO2)C[C@@H]1N1CCCC1
inactive: activity change, negative = inhibition ([1]; at 42.5 µM (top of the series)) -8.84% | viability change, negative = cytotoxic [2] 7.54% [at 35.3 µM] | activation [3] -1.17% [at 35.3 µM] | activation ([4]; at 35.3 µM (top of the series)) -7.75% | activity, negative = inhibition ([5]; at 42.5 µM (top of the series)) -3.16% | Potency [6] | Potency [7] | Potency [8] | Potency [9] | Potency [10] | activation [11] -7.66% [at 42.5 µM] | viability change, negative = cytotoxic [12] -3.78% [at 42.5 µM]

CCCCO[P+](=O)OCCCC
inactive: activity change, negative = inhibition ([1]; at 92.4 µM (top of the series)) 4.98% and -25.1% | viability change, negative = cytotoxic [2] 3.62% and -1.53% | activation [3] -0.439% and -1.24% | activation ([4]; at 76.8 µM (top of the series)) -0.76% and 0.505% | Potency [6] | Potency [7] | Potency [8] | Potency [9] | Potency [10] | activation [11] -0.873% and -1.09% | viability change, negative = cytotoxic [12] -3.15% and 3.69% | Potency [15] | activation [13] -6.02% and -1.83% | Potency [14]

CN(C(=O)Cc1ccccc1)[C@@H]1CC[C@]2(CCCO2)C[C@H]1N1CCCC1
inactive: Potency [16] | Potency [17]

O=[N+]([O-])c1ccc(S(=O)(=O)O)c([N+](=O)[O-])c1
inactive: viability change, negative = cytotoxic [2] 7.8% | activation [3] -0.379% | Potency [6] | Potency [8] | Potency [9] | viability change, negative = cytotoxic [12] 0.427%
active: Potency [14] 2750 nM
